# Values quoted from earlier work in US20220211662A1, “METHOD OF TREATING CANCER BY ADMINISTERING AN EPIGALLOCATECHIN GALLATE COMBINED WITH TYROSINE KINASE INHIBITOR” (Yunnan Daye Dihong Biotechnology Co., Ltd., priority 2019, published 2022).
# Tested on: EGFR tumor patients
# Details: cited from earlier work
smiles,measurement,setting,value
COc1cc2ncnc(Nc3ccc(F)c(Cl)c3)c2cc1OCCCN1CCOCC1 [Gefitinib],clinical effect,patient with highly activated EGFR,no significant effect
same,effective rate,patients with EGFR L858R mutation,≤ 80%
